For the assay, the target named is Kappa opioid receptor (Sus scrofa) (UniProt Q8WNX7). The assay can be described thus: Antinociceptive activity by measuring effective dose after 10 mg/kg of nor-BNI administered subcutaneously 10 min before agonist administered in mouse; Full antagonism of the pharmacological effect produced by the ED50 dose of the agonist. Particulars: filed as antagonist.

Sequences of proteins named here, by UniProt entry; tags and fusion partners are left off.
UniProt Q8WNX7, entry or part of it: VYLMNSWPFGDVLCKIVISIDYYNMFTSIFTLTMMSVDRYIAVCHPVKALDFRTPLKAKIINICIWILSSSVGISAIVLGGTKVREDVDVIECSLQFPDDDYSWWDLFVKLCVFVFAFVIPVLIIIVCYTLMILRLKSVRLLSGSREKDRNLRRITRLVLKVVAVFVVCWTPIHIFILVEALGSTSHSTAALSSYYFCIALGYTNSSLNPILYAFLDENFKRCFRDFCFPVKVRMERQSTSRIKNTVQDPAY

Molecules are shown by their SMILES.

Experimental findings from ChEMBL document CHEMBL1133607, “Nonpeptide analogues of dynorphin A(1-8): design, synthesis, and pharmacological evaluation of kappa-selective agonists” (J Med Chem, 2000) are described below.

Turning to `CN(C(=O)Cc1ccc(Cl)c(Cl)c1)C1CCCCC1N1CCCC1.Oc1ccc2c3c1OC1c4[nH]c5c(c4C[C@@]4(O)C(C2)N(CC2CC2)CCC314)C[C@@]1(O)[C@H]2Cc3ccc(O)c4c3C1(CCN2CC1CC1)C5O4` (stereo partly specified), the ED50 result is “Antagonist”.
